Laboratory results as given in article PMC13224164.

Protein sequences, listed by entry. Tags and fused reporters are not part of them. Residues count along the entry.
UniProt O00206, 24-839 limits assumed: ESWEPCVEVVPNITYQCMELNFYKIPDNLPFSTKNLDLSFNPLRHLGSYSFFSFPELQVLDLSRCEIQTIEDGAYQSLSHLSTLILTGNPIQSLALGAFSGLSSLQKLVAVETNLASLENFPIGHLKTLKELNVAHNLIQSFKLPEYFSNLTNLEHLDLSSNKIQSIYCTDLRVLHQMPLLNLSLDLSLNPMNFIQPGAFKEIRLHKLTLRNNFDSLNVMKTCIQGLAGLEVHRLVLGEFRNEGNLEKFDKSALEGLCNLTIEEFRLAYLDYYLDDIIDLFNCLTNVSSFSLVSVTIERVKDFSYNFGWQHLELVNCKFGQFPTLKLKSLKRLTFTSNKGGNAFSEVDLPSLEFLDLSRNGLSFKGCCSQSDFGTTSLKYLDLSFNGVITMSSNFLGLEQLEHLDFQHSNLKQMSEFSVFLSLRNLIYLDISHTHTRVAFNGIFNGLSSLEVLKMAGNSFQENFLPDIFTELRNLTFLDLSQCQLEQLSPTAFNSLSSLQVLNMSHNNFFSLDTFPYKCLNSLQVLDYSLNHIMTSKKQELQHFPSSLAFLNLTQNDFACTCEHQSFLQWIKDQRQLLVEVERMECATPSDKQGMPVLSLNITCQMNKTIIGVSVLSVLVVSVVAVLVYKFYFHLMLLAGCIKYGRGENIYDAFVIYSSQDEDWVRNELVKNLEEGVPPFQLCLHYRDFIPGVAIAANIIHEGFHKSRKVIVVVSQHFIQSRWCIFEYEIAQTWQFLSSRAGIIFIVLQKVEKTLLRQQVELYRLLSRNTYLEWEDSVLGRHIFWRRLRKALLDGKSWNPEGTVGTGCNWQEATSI
UniProt Q9Y6Y9, 19-160 partner limits assumed: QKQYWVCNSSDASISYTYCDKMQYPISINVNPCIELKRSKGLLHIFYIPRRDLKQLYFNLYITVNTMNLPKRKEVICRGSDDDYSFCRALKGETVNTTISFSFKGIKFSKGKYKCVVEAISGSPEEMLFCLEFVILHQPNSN

Target: TLR4 (Homo sapiens, UniProt O00206)
Test: HEK-Blue hTLR4 NF-kB/SEAP reporter dose-response

**Q.** With `O=C(CSc1nc2c([nH]c3ccccc32)c(=O)n1-c1ccccc1)NC1CCCCC1` as the molecule, how does the EC50 read?
**A.** 4.3 µM
